The values below come from patent US20230227484A1, “PYRIMIDINE COMPOUND AS AXL INHIBITOR” (NANJING CHIA TAI TIANQING PHARMACEUTICAL CO., LTD., priority 2020, published 2023).

The chains behind the UniProt entries cited, without tags or fusion partners. Residues count along the entry.
UniProt P30530, 473-894 limits assumed: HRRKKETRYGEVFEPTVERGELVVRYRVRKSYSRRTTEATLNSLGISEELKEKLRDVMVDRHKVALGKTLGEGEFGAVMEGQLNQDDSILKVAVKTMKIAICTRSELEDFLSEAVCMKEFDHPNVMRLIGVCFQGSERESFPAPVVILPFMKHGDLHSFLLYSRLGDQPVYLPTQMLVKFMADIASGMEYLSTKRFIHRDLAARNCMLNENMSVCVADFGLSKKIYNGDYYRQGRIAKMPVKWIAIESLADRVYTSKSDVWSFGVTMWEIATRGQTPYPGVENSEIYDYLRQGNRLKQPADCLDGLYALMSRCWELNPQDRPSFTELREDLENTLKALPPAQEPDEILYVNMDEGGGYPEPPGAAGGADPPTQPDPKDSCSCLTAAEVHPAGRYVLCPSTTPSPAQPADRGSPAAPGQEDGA

Assay [1] concerns MV-4-11 (human myeloid monocytic leukemia cell line). As to the kind of experiment: Proliferation inhibition activity of compounds to MV-4-11 cells (CellTiter-Glo). Particulars: read-out: IC50 (MV4-11), MV4-11 cells, 72 h dosing. For orientation: Cellular ATP, detected with luciferase, serves as a proxy for viable cell number.
Another assay deals with AXL kinase (Homo sapiens, UniProt P30530). Kind of assay: Inhibitory activity of compound against AXL kinase (HTRF KinEASE). Format: biochemical. Particulars: read-out: Inhibitory activity IC50 (nM) against AXL; AXL enzyme (Carna, 08-107), ATP 15 μM; "<" means below detection limit of the test. For orientation: Time-resolved FRET reads energy transfer from a long-lived donor to a nearby acceptor.

One may read the IC50 as the concentration needed to halve the response being measured.

Molecules are shown by their SMILES.

As for `CP(C)(=O)c1cc(Cl)ccc1Nc1nc(Nc2ccc3c(c2)CC[C@@H](N2C[C@@H]4C[C@H]2CO4)CC3)ncc1Cl` (single isomer, unassigned), the values for the concentration for half-maximal inhibition (IC50) (in assay [1]; at AXL kinase) were 3.51 nM and 0.71 nM, respectively.
For `CP(C)(=O)c1cc(OC2CC2)ccc1Nc1nc(Nc2ccc3c(c2)CC[C@@H](N2CC4CC2C4)CC3)ncc1Cl` (single isomer, unassigned) the same measures were 5.42 nM and 1.09 nM.
For `Cc1ccc(Nc2nc(Nc3ccc4c(c3)CCC(N3CC5CC3C5)CC4)ncc2Cl)c(P(C)(C)=O)c1` (single isomer, unassigned) the same measures were 9.38 nM and 1.23 nM.
For `Cc1ccc(Nc2nc(Nc3ccc4c(c3)CC[C@@H](N3CCC5(COC5)C3)CC4)ncc2Cl)c(P(C)(C)=O)c1` (single isomer, unassigned) the same measures were 3.03 nM and 2.04 nM.
As for `Cc1ccc(Nc2nc(Nc3ccc4c(c3)CC[C@@H](N3CC[C@H](F)C3)CC4)ncc2Cl)c(P(C)(C)=O)c1` (single isomer, unassigned), the IC50 was determined as 3.59 nM in assay [1] and 1.87 nM at AXL kinase.
The matching figures for `Cc1ccc(Nc2nc(Nc3ccc4c(c3)CC[C@@H](N3CC[C@H](O)C3)CC4)ncc2Cl)c(P(C)(C)=O)c1` (single isomer, unassigned): 4.36 nM and 4.11 nM.
With `CP(C)(=O)c1cc(F)ccc1Nc1nc(Nc2ccc3c(c2)CCC(N2CCC4(CC4)C2)CC3)ncc1Cl` (single isomer, unassigned) [Example 62 Isomer 62-2], the 50% inhibitory concentration (IC50) in assay [1] is 3.5 nM; on AXL kinase, 1.12 nM.
`CP(C)(=O)c1cc(F)ccc1Nc1nc(Nc2ccc3c(c2)CCC(N2CC4CC2CO4)CC3)ncc1Cl` (single isomer, unassigned) [Example 63 Isomer 63-1]: the half-inhibitory concentration (IC50) in assay [1] was determined as 7.02 nM; at AXL kinase, 1.93 nM.
The matching figures for `Cc1ccc(Nc2nc(Nc3ccc4c(c3)CCC(N3CCC5(CC5)C3)CC4)ncc2Cl)c(P(C)(C)=O)c1` (single isomer, unassigned) [Example 69 Isomer 69-1]: 3.46 nM and 1.35 nM.
The matching figures for `Cc1ccc(Nc2nc(Nc3ccc4c(c3)CCC(N3CC5CC5C3)CC4)ncc2Cl)c(P(C)(C)=O)c1` (single isomer, unassigned) [Example 71 Isomer 71-1]: 7.74 nM and 0.26 nM.
The matching figures for `CP(C)(=O)c1cc(OC(F)F)ccc1Nc1nc(Nc2ccc3c(c2)CCC(N2C4COCC2C4)CC3)ncc1Cl` (single isomer, unassigned) [Example 84 Isomer 84-1]: 2.55 nM and 0.98 nM.
As for `CP(C)(=O)c1cc(OC(F)F)ccc1Nc1nc(Nc2ccc3c(c2)CCC(N2C4CCC2COC4)CC3)ncc1Cl` (single isomer, unassigned) [Example 85 Isomer 85-1], the IC50 in assay [1] amounted to 1.93 nM; at AXL kinase, 0.73 nM.
The matching figures for `CP(C)(=O)c1cc(C#N)ccc1Nc1nc(Nc2ccc3c(c2)CCC(N2CC4CC2C4)CC3)ncc1Cl` (single isomer, unassigned) [Example 86 Isomer 86-2]: 2.91 nM and 1.57 nM.
Take `CP(C)(=O)c1cc(C#N)ccc1Nc1nc(Nc2ccc3c(c2)CCC(N2C4COCC2C4)CC3)ncc1Cl` (single isomer, unassigned) [Example 87 Isomer 87-1]: the IC50 is 3.78 nM in assay [1] and 0.53 nM on AXL kinase.
The matching figures for `CP(C)(=O)c1cc(C#N)ccc1Nc1nc(Nc2ccc3c(c2)CCC(N2C4CCC2COC4)CC3)ncc1Cl` (single isomer, unassigned) [Example 88 Isomer 88-2]: 2.06 nM and 0.55 nM.
For `Cc1ccc(Nc2nc(Nc3ccc4c(c3)CCC(N3C5COCC3C5)CC4)ncc2Cl)c(P(C)(C)=O)c1` (single isomer, unassigned) [Example 89 Isomer 89-1] the same measures were 2.99 nM and 0.77 nM.
